# Experimental data as given in PubChem BioAssay AID504692 (The Scripps Research Institute Molecular Screening Center, 2011).
# Chains of the proteins cited; added tags and fusions are not shown.
# UniProt P47898, whole entry, looked up: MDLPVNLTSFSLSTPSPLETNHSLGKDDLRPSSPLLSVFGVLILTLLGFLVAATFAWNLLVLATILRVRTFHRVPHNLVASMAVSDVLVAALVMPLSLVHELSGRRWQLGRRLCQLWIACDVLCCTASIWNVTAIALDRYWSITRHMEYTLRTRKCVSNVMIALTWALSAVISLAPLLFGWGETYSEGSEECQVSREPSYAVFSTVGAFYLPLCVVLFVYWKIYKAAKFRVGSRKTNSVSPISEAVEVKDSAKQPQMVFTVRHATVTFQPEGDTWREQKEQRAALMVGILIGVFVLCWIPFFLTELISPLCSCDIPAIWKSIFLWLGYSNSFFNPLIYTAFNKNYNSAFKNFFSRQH
# The list shows a part of the results, in another mix than the full data. Active and inactive are the calls of the source. No stated cut-off is given here; in the data, active means activation mostly above about 9.5% (no sharp cut-off); inactive means mostly below about 7.6%.
# Biological target: 5-hydroxytryptamine receptor 5A (Homo sapiens) (UniProt P47898)
# Assay: HTR5A agonists in luminescence cell assay, primary screen, counter-screen for OPRM1-OPRD1 heterodimer agonist project, full-deck HTS (AID 504692);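 further: 0% = cells with vehicle only and 100% = reference agonist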
# Details: cell-based, at 9.3 µM, hits give high values
row,SMILES,activation
1,CC(C)NC(=S)N1CCn2c(nc3ccccc32)C1,inactive: 1.72%
2,CC1Cc2ccccc2N1C(=O)CSc1nc2ccccc2n1CC(=O)N1CCOCC1 (stereo not given),inactive: 5.13%
3,O=C(CCCCCNC(=O)N1CCn2c1nc1ccccc12)NCc1ccc(Cl)cc1,inactive: -5.08%
4,O=C(Cn1cnc2ccccc21)N/N=C/c1cccc([N+](=O)[O-])c1,inactive: 0.67%
5,NC(=O)Nc1ccc([As](=O)(O)O)cc1,inactive: 0.68%
6,O=C(Cn1cnc2c(NCc3ccccc3)ncnc21)NCCc1cc2ccccc2[nH]1,inactive: -0.23%
7,CCCCNC(=O)Cn1c(=O)n(C)c2ccccc21,inactive: 2.46%
8,CCOC(=O)C1=C(Cn2cnc3ccccc32)NC(=O)NC1c1ccc(OC)cc1 (stereo not given),inactive: -3.41%
9,Cc1nc2ccccc2n1C1CC(=O)N(N(C)C)C1=O (stereo not given),inactive: 2.33%
10,CC(=O)Nc1nc2ccccc2n1CCN1CCOCC1,inactive: 2.93%
11,Cc1cccc(C)c1NC(=O)Cn1cnc2c(=O)n(C)c(=O)n(C)c21,inactive: 1.85%
12,CC(=O)OCCNC(=O)Cn1cnc2c1c(=O)n(C)c(=O)n2C,inactive: 1.63%
13,CCC(C)NC(=O)Cn1c(COc2ccc(Cl)cc2Cl)nc2ccccc21 (stereo not given),inactive: 3.06%
14,Cn1c(=O)[nH]c(=O)c2c1ncn2CCN1CCOCC1,inactive: -2.51%
15,CCC(C)[C@H](NC(=O)N1CCn2c1nc1ccccc12)C(=O)NCc1ccc(OC)cc1 (stereo not given in full),inactive: 2.79%
16,Cn1c(=O)c2c(ncn2CC(=O)N(Cc2ccccc2)c2ccccn2)n(C)c1=O,inactive: -0.25%
17,O=C(Nc1nc2ccccc2n1CCN1CCCC1)C1CCCCC1,inactive: 0.72%
18,CCN(CC)CCn1c(NCc2ccc(C)o2)nc2ccccc21,inactive: 1.19%
19,Cc1ccc(C(=O)Nc2nc3ccccc3n2CCN2CCCC2)cc1,inactive: 2.12%
20,CC1CCCCN1C(=O)Cn1cnc2c1c(=O)n(C)c(=O)n2C (stereo not given),inactive: 3.5%
21,O=[N+]([O-])c1ccc2c(c1)nnn2O,inactive: -1.77%
22,CN(C)C(=O)c1cc([N+](=O)[O-])cc2c1-c1c(cc([N+](=O)[O-])cc1[N+](=O)[O-])C2=O,inactive: -1.97%
23,CCc1cccc(C)c1NC(=O)Cn1c(NCCO)nc2ccccc21,inactive: -1.1%

row,SMILES,activation
1,Cc1ccc2c(c1)C1CN(C)CCC1N2C(=S)NC(=O)c1ccc(Br)cc1 (stereo not given),inactive: -4.37%
2,CC(C)CN(C(=O)Cn1c(C(F)(F)F)nc2ccccc21)C1CCS(=O)(=O)C1 (stereo not given),inactive: 4.77%
3,CN(C(=O)Cc1ccc(Cl)c(Cl)c1)[C@H]1CC[C@@]2(CCCO2)C[C@@H]1N1CCCC1,inactive: 6.98%
4,O=C(CSc1nc2ccccc2n1CC(=O)N1CCCC1)Nc1nccs1,inactive: -3.57%
5,O=C(Cn1cnc2ccccc21)N/N=C/c1ccccc1[N+](=O)[O-],inactive: 0.95%
6,N#CCCN(C(=O)COC(=O)C(O)(c1ccccc1)c1ccccc1)c1ccc(F)cc1,inactive: 0.74%
7,O=C(Nc1ccccc1)N1CCn2c1nc1ccccc12,inactive: -4.58%
8,COc1ccc(CNC(=O)[C@H](CCSC)NC(=O)N2CCn3c2nc2ccccc23)cc1,inactive: 2.59%
9,CCOC(=O)c1ccc(N2C(=O)CC(N3CCC(Nc4ccc(F)cc4)CC3)C2=O)cc1 (stereo not given),inactive: -1.24%
10,Cn1c(=O)c2c(nc(CN3CCN(c4ccccc4F)CC3)n2CCN2CCOCC2)n(C)c1=O,inactive: -1.41%
11,CC(C)[C@H](NC(=O)N1CCn2c1nc1ccccc12)C(=O)NCc1ccco1,inactive: 4.49%
12,Fc1ccc2c(c1)nnn2C1CCN(Cc2c(Cl)cccc2Cl)CC1,inactive: 0.51%
13,CCOP1(=S)c2c(C)nn(CCC#N)c2N=C(c2ccc(F)cc2)N1C (stereo not given),inactive: 7.52%
14,CN(C(=O)Cc1ccccc1)[C@@H]1CC[C@]2(CCCO2)C[C@H]1N1CCCC1,inactive: -1.94%
15,CC(C(O)c1ccccc1)N(C)CCn1cnc2c1c(=O)n(C)c(=O)n2C (stereo not given),inactive: 0.83%
16,C[C@H](NC(=O)N1CCn2c1nc1ccccc12)C(=O)NCc1ccc2c(c1)OCO2,inactive: 3.32%
17,CCN(CC)CCn1c(=N)n(CC(O)COc2ccccc2)c2ccccc21 (stereo not given),inactive: -0.84%
18,CCN(Cc1ccccc1)C(=O)Cn1cnc2c1c(=O)n(C)c(=O)n2C,inactive: -1.34%
19,COC(=O)[C@H](CCSC)NC(=O)Cn1cnc2c(SC)nc(N)nc21,inactive: -6.74%
20,CN(C)C(=O)Cn1c(SCC(=O)N2CCCc3ccccc32)nc2ccccc21,inactive: 6.98%
21,O=C1NCN(c2ccccc2)C12CCN(c1nnnn1-c1ccccc1)CC2,inactive: 1.27%
22,Cc1ccc(/C=N\NC(=O)Cn2c(C)nc3ccccc32)o1,inactive: -5.19%
23,Cn1c(=O)c2c(ncn2CC(=O)Nc2ccc3c(c2)OCO3)n(C)c1=O,inactive: 1.97%

row,SMILES,activation
1,CS(=O)(=O)c1cc([N+](=O)[O-])c2no[n+]([O-])c2c1,inactive: -3.73%
2,O=C(Cn1cnc2ccccc21)N1CCc2ccccc21,inactive: 2.97%
3,Cn1c(=O)n(CC(=O)Nc2ccc(F)cc2)c2ccccc21,inactive: 0.5%
4,CCOP1(=S)c2c(C)nn(CCC#N)c2N=C(c2ccccc2F)N1C (stereo not given),inactive: 4.54%
5,CN(C(=O)Cn1c(Cl)nc2c1c(=O)n(C)c(=O)n2C)C1CCS(=O)(=O)C1 (stereo not given),inactive: -3.58%
6,CCN1CCC(Nc2ccnc3cc(Cl)ccc23)CC1,inactive: 3.44%
7,C/C(=N\NC(=O)Cn1c(-c2ccccn2)nc2ccccc21)c1cccc(O)c1,inactive: -2.49%
8,N#Cc1ccc(NC(=O)Cn2c3[n+](c4ccc(C(F)(F)F)cc42)CCCCC3)cc1,inactive: 1.86%
9,O=C(Nc1nc2ccccc2n1CCN1CCOCC1)c1ccc(Cn2cc([N+](=O)[O-])cn2)o1,inactive: 2.85%
10,CCC(C)[C@H](NC(=O)N1CCn2c1nc1ccccc12)C(=O)NCCc1ccc(OC)c(OC)c1 (stereo not given in full),inactive: -7.07%
11,Cc1ccccc1NC(=O)Cn1c(NCC(C)O)nc2ccccc21 (stereo not given),inactive: 2.98%
12,O=P(Nc1nccs1)(Oc1ccccc1)Oc1ccccc1,inactive: 8.31%
13,CC(C)c1ccc(NC(=O)C2CC(=O)Nc3nc4ccccc4n32)cc1 (stereo not given),inactive: -2.74%
14,CCc1nc2ccccc2n1CC(=O)Nc1cc(C)on1,inactive: 7.1%
15,Cc1nc2ccccc2n1CC(=O)N/N=C/c1cccnc1,inactive: 4.53%
16,CCN(CC)CCn1c(C)nc2ccccc21,inactive: 5.09%
17,Cn1c(=O)c2c(ncn2CC(=O)N2CCN(S(=O)(=O)c3ccc(Cl)cc3)CC2)n(C)c1=O,inactive: 1.42%
18,O=P(Nc1nccs1)(c1ccccc1)c1nc2ccccc2s1 (stereo not given),inactive: 0.32%
19,CCOC(=O)c1ccccc1NC(=O)Cn1cnc2c1c(=O)n(C)c(=O)n2C,inactive: 2.66%
20,COCCN1CCn2c(nc3cc(NC(=O)NC4CCCCC4)ccc32)C1,inactive: -0.8%
21,NC(=O)Cn1c(-c2nonc2N)nc2ccccc21,inactive: 1.59%
22,Cc1ccc2c(c1)C1CN(C)CCC1N2C(=O)c1cn(-c2ccccc2)nc1-c1ccccc1 (stereo not given),inactive: -1.15%
23,Nc1nonc1-c1nc2ccccc2n1CC(=O)N/N=C/c1ccc(-c2cccc(C(=O)O)c2)o1,inactive: -3.11%

row,SMILES,activation
1,O=C(O)COc1ccc([As](=O)(O)O)cc1[N+](=O)[O-],inactive: 2.77%
2,Nc1ccccc1[As](=O)(O)c1ccccc1,inactive: 7.78%
3,O=C(Cn1cnc2ccccc21)N/N=C/c1ccc([N+](=O)[O-])cc1,inactive: 0.91%
4,CCOC(=O)CNC(=S)N1CCn2c(nc3ccccc32)C1,inactive: 0.72%
5,Cn1c(=O)c2c(ncn2CC(=O)N/N=C/c2cn[nH]c2-c2ccc(F)cc2)n(C)c1=O,inactive: -1.3%
6,Cn1c(=O)c2c(ncn2CC(=O)N/N=C/C=C/c2ccco2)n(C)c1=O,inactive: -5.72%
7,O=C(C1CCN(S(=O)(=O)c2cnc[nH]2)CC1)N1CCn2c1nc1ccccc12,inactive: -11.2%
8,CCOC(=O)C1CCN(C(=O)CC2C(=O)N(Cc3ccccc3)C(C)c3nc4ccccc4n32)CC1 (stereo not given),inactive: -0.16%
9,Cc1nc2ccccc2n1CC(=O)NCc1ccccc1,inactive: 3.1%
10,COc1cccc(C(=O)CSc2nc3ccccc3n2CC(=O)N(C(C)C)C(C)C)c1,inactive: -3.49%
11,Cn1c(=O)n(Cc2ccc(F)cc2)c(=O)c2c1nc1n2CCN1Cc1ccco1,inactive: -4.09%
12,CC(C)Sc1nc2ccccc2n1CC(=O)NCc1ccc2c(c1)OCO2,inactive: -0.12%
13,N=c1n(CCN2CCOCC2)c2ccccc2n1CC(O)COc1ccccc1 (stereo not given),inactive: -7.24%
14,NC(=O)CC(NC(=O)Cc1cccc2ccccc12)c1ccc(NC2CCN(Cc3ccccc3)CC2)c([N+](=O)[O-])c1 (stereo not given),inactive: -3.95%
15,NNC(=O)Cn1c(COc2ccc(Cl)cc2)nc2ccccc21,inactive: -3.34%
16,COC(=O)[C@@H](Cc1ccccc1)NC(=O)Cn1cnc2c(SC)nc(N)nc21,inactive: 1.35%
17,Fc1ccc2c(c1)nnn2C1CCN(Cc2nnnn2C2CCCCC2)CC1,inactive: 1.99%
18,COC(CNC(=O)CC1C(=O)N(Cc2ccccc2)C(C)c2nc3ccccc3n21)OC (stereo not given),inactive: 3.19%
19,CCN(CC)CCCNC(=S)N1CCn2c(nc3ccccc32)C1,inactive: 3.07%
20,CCCOP(=S)(Nc1nc(N)cc(=O)[nH]1)OCCC,inactive: 7.31%
21,O=C(CSc1nc2ccccc2n1CC(=O)N1CCOCC1)N1CCCC1,inactive: -5.85%
